Data on 80 compounds can be found in published antibiotic growth screens (doi:10.1038/s41589-023-01349-8).

The list shows a part of the results.

This test has as its system A. baumannii ATCC 17978. The experiment in a line: relative growth (fraction of control); higher = less inhibition. The following applies: 50 µM.
`COc1cc2c(cc1OC)CN(C(=O)[C@H]1[C@@H]3C(=O)O[C@@H](c4ccccc4)[C@@H](c4ccccc4)N3[C@@H](c3ccc(O)cc3)[C@]13C(=O)Nc1ccc(C#CC4=CCCCC4)cc13)CC2` displayed a relative growth of 1.04.

For the compound `CC[N+](C)(C)Cc1ccc(Br)cc1.Cc1ccc(S(=O)(=O)[O-])cc1`, the relative growth turned out to be 1.13. The result for `O=c1[nH]c2ccsc2c(=O)n1CCO` reads 1.01.

`CC(C)C[C@H](NP(=O)(O)O[C@H]1O[C@@H](C)[C@@H](O)[C@@H](O)[C@@H]1O)C(=O)N[C@H](Cc1c[nH]c2ccccc12)C(=O)O`: the relative growth came to 1.06.

In the case of `O=C(C[C@H]1CC[C@H]2[C@@H](COC[C@@H](O)CN2S(=O)(=O)c2ccc(F)cc2)O1)NCCN1CCCCC1`, the relative growth is 1.05. On to `Cc1ccc(CSc2ncc(C(F)(F)F)cc2Cl)cc1`, for which the relative growth worked out at 0.909. Then `Cl.Fc1ccc([C@@H]2CCNC[C@H]2COc2ccc3c(c2)OCO3)cc1`, with 1.22; and `Cc1ncc(CO)c(/C=N/O)c1O`, with 1.04; and `Cc1cc(=O)nc(SCC(N)=O)[nH]1`, with 1.11. As to `CN(C)CCCNC(=O)[C@@]1(Cc2ccccc2I)c2ccccc2C(=O)N(C2CCCCC2)[C@H]1c1ccc(CO)cc1`, the relative growth turned out to be 0.987. For `COC(=O)NCCOc1nc(N(C)C)nc(N(C)C)n1`, the relative growth was 0.915.

As to `CCCNC(=O)Nc1ccc2c(c1)C(=O)N(C)C[C@H](OC)[C@H](C)CN(C(=O)C1CCOCC1)[C@H](C)CO2`, the relative growth is 1.25.

As for `O=C(NC1CCCCC1)NC1CCCCC1`, the relative growth is 0.999. Compound `CC(=O)O[C@@H]1CC[C@@]2(C)C(CC[C@]3(C)C2CC=C2C4CC(C)(C)CC[C@]4(C(=O)O)CC[C@]23C)C1(C)C` (stereo not given in full) registered a relative growth of 0.839. Then `CC12CCC3C(=CCc4cc(O)ccc43)C1CCC2=O` (stereo not given), with 0.933.

With `C[C@H]1COc2c(N3CCN(C)CC3)c(F)cc3c(=O)c(C(=O)O)cn1c23`, the relative growth was found to be 0.146.

As for `COC(=O)c1c2oc(c1C(=O)OC)C(=O)N[C@H](Cc1ccccc1)Cn1cc(nn1)[C@@H](Cc1ccccc1)NC(=O)N[C@@H](CO)CC2`, the relative growth came to 1.11. `C=C1CCC2C(CC2(C)C)C(=O)CCC1O` (stereo not given) yielded a relative growth of 0.976. The result for `O=c1[nH]cc(COCc2ccccc2)c(=O)[nH]1` reads 1.05. Then `O=C(C[C@@H]1CC[C@H]2[C@@H](COC[C@@H](O)CN2S(=O)(=O)c2ccccc2F)O1)NCc1ccccc1Cl`, with 1.1; and `CCS(=O)(=O)NCC[C@@H]1CC[C@@H](NC(=O)C2CCOCC2)[C@@H](CO)O1`, with 1.02; and `Cl.N[C@@H]1[C@@H](O)[C@H](O)[C@@H](CO)O[C@H]1O`, with 0.941. Then `Nc1ccn(C2O[C@H](CO)[C@@H](O)[C@H]2O)c(=O)n1` (stereo not given in full), with 1.11; and `NC(=O)CSc1ccccn1`, with 0.984.

In turn, `O=C(C[C@H]1C=C[C@H](NC(=O)Cc2ccccn2)[C@H](CO)O1)NCCCN1CCOCC1` registered a relative growth of 1.05.

Turning to `COc1ccc(NC(=O)N(C)C[C@H]2Oc3cc(C#CCN(C)C)ccc3S(=O)(=O)N([C@H](C)CO)C[C@H]2C)cc1`, the relative growth came to 1.08. The result for `O=C(CCCCC(=O)N/N=C/[C@H](O)[C@H](O)[C@@H](O)[C@@H](O)CO)NO` reads 0.937. Then `CNC[C@@H]1Oc2cc(C#CC(C)(C)O)ccc2S(=O)(=O)N([C@@H](C)CO)C[C@@H]1C`, with 1.11; and `C=CCNC(=O)CSc1nc(=O)cc(N)[nH]1`, with 1.04; and `CN1CCC[C@H]1c1cccnc1.O=C(O)C(O)C(O)C(=O)O.O=C(O)C(O)C(O)C(=O)O`, with 1.05. As to `C=CCn1c(=O)n([C@H]2O[C@@H](CO)[C@@H](O)[C@@H]2O)c2[nH]c(N)nc(=O)c21`, the relative growth is 1.03. The result for `O=C(C[C@H]1CC[C@@H]2[C@H](COC[C@@H](O)CN2C(=O)c2ccncc2)O1)NC1CCC1` reads 1.09; that for `Cn1cnc(S(=O)(=O)N2C[C@H](O)COC[C@@H]3O[C@H](CC(=O)NCc4cc(F)cc(F)c4)CC[C@H]32)c1`, 1.02; that for `CC(C)NCC(O)c1ccc2ccccc2c1.Cl` (stereo not given), 1. Then `O=C(CN1CCOCC1)NCC[C@@H]1CC[C@H](NC(=O)Cc2ccccn2)[C@@H](CO)O1`, with 1.01; and `O=C(O)CSCC(=O)NC1CCSC1=O` (stereo not given), with 0.981; and `CC(C)=CCOc1cc2oc(=O)ccc2cc1O`, with 0.955. The result for `COCC(=O)Nc1ccc2c(c1)OC[C@@H](C)N(C(=O)Cc1ccccn1)C[C@@H](C)[C@@H](OC)CN(C)C2=O` reads 0.952; that for `CC(C)NC(=O)N[C@@H]1C=C[C@H](CC(=O)NCCN2CCCC2)O[C@@H]1CO`, 0.968; that for `O=C(Cc1ccncc1)NCC[C@H]1CC[C@@H](NC(=O)C2CCOCC2)[C@H](CO)O1`, 1.05. `COc1cccc(S(=O)(=O)N2C[C@H](O)COC[C@H]3O[C@@H](CC(=O)N4CCOCC4)CC[C@@H]32)c1` yielded a relative growth of 0.865. Turning to `CC(C)(C)OC(=O)C[C@@H]1CC=CC[C@@H](CC(=O)NCCO)C(=O)N[C@@H](Cc2ccccc2)COC1=O`, the relative growth turned out to be 1.02. Compound `CCC(C)C1NC(=O)C(CCNCS(=O)(=O)[O-])NC(=O)C(NC(=O)C(CCNCS(=O)(=O)[O-])NC(=O)C(NC(=O)C(CCNCS(=O)(=O)[O-])NC(=O)CCCCC(C)C)C(C)O)CCNC(=O)C(C(C)O)NC(=O)C(CCNCS(=O)(=O)[O-])NC(=O)C(CCNCS(=O)(=O)[O-])NC(=O)C(C(C)CC)NC1=O.[Na+].[Na+].[Na+].[Na+].[Na+]` (stereo not given) yielded a relative growth of 0.158. `C[C@H](CO)N1C[C@H](C)[C@H](CN(C)C(=O)c2cccnc2)Oc2ncc(-c3ccc(C(=O)N(C)C)cc3)cc2C1=O` registered a relative growth of 1.08. Then `COc1cccc(S(=O)(=O)N[C@@H]2CC[C@H](CC(=O)NC3CCC3)O[C@H]2CO)c1`, with 0.987.

As for `CC(=O)Oc1ccc(O)cc1`, the relative growth turned out to be 0.919.

The compound `Cc1cc2c(cc1C)N=C(C(F)(F)F)CC(c1cccs1)=N2` returned a relative growth of 0.922. Then `O=S(=O)(NCC[C@@H]1CC[C@@H](NS(=O)(=O)c2cccc(Cl)c2)[C@H](CO)O1)c1cccc(F)c1`, with 0.987; and `CC1(C)CCC2=C(O1)c1ccccc1C(=O)C2=O` [beta-LAPACHONE], with 1.47. The result for `Cn1c(=O)c(C(=O)NCCO)c(O)c2ccccc21` reads 1.02; that for `COc1ccccc1S(=O)(=O)N[C@@H]1CC[C@H](CCNC(=O)C2CC2)O[C@@H]1CO`, 0.954. On to `Cn1c(=O)[nH]c(=O)c2c(=O)cc[nH]c21`, for which the relative growth was found to be 1.14.

The compound `O=C(C[C@H]1C=C[C@H](NC(=O)Cc2ccccn2)[C@H](CO)O1)NCCc1ccncc1` showed a relative growth of 0.994.

`COc1ccc(C(=O)Nc2cccc(CN3C(=O)[C@@]4(O[C@@H](CC(=O)N(CCO)Cc5ccccc5)[C@H]([Si](C)(C)c5ccc(OC)cc5)[C@H]4C)c4ccccc43)c2)cc1`: the relative growth turned out to be 1.08. Then `NCC[C@@H]1CC[C@@H](NC(=O)C2CCCCC2)[C@H](CO)O1`, with 0.988; and `CC(=O)O[C@H]1C[C@@H](OC(C)=O)C(C)(C)C2CC(=O)[C@]3(C)C(CC[C@@]4(C)[C@H](c5ccoc5)OC(=O)[C@H]5O[C@]543)[C@]21C` (stereo not given in full), with 1.03; and `COc1ccc([N+](=O)[O-])cc1CNCCO`, with 1. Then `CC(=O)NCCCC[C@@H]1NC(=O)[C@@H]2C[C@H](C(=O)NCCCCCCNC(=O)CS)[C@H](c3ccc(O)cc3)N2C1=O`, with 0.899; and `O=C(CS)NCCCCCCNC(=O)[C@H]1C[C@H]2C(=O)NCC(=O)N2[C@H]1c1ccc(O)cc1`, with 0.898; and `Cc1noc(C)c1S(=O)(=O)/N=C/N(C)C`, with 1.14. With `O=C(C[C@H]1C=C[C@@H](NC(=O)c2ccc(F)cc2)[C@@H](CO)O1)NCc1ccncn1`, the relative growth worked out at 0.999.

Compound `CC(C)C(=O)Nc1ccc([N+](=O)[O-])c(C(F)(F)F)c1` displayed a relative growth of 0.943.

Compound `CO[C@@H]1[C@@H](OC(N)=O)[C@@H](O)[C@H](Oc2ccc3c([O-])c(NC(=O)c4ccc(O)c(CC=C(C)C)c4)c(=O)oc3c2C)OC1(C)C.[Na+]` had a relative growth of 0.143. Then `O=C(Nc1ccc(Cl)cc1)c1sc2ccccc2c1Cl`, with 1.21; and `Cc1ccc2oc(=O)cc(Cl)c2c1`, with 1.1; and `COc1ccc(COC[C@]23N=C4SCc5ccccc5C(=O)N4[C@H](c4ccccc4O2)[C@H]3COC(=O)c2ccccc2)cc1`, with 1.09.

For `O=C1O[C@@H](c2ccccc2)[C@@H](c2ccccc2)N2[C@@H](c3ccc(O)cc3)[C@]3(C(=O)Nc4ccc(C#CC5(O)CCCCCC5)cc43)[C@@H](C(=O)NC[C@H](O)c3ccccc3)[C@H]12`, the relative growth came out at 1.02. The result for `C=CC(=O)N1C[C@H]2CC[C@H](O)[C@H]2C1` reads 1.01; that for `COCCNC(=O)C[C@@H]1CC[C@@H]2[C@H](COC[C@@H](O)CN2S(=O)(=O)c2ccccc2C)O1`, 0.973; that for `CC(=O)NCCCC[C@@H]1NC(=O)[C@@H]2C[C@H](C(=O)NCCCCN(C)C)[C@H](c3cccc(OCCO)c3)N2C1=O`, 1.08. The compound `NC(=O)c1ccc[n+](CC(=O)N2CCCCC2)c1` had a relative growth of 1. Take `COC(=O)C[C@H]1CC[C@H]2[C@@H](COC[C@@H](O)CN2S(=O)(=O)c2ccc(F)cc2)O1`: the relative growth was 0.848. The compound `C=CC[C@H](CC(=O)NCCO)C(=O)N[C@H](COC(=O)[C@H](CC=C)CC(=O)OC(C)(C)C)Cc1ccccc1` yielded a relative growth of 0.865. `CC(=O)OC1CCC2(C)C3CC(=O)C4(C)C(CC5OC6(CCC(C)CO6)[C@@H](C)C54)C3CC[C@H]2C1` (stereo not given in full) had a relative growth of 0.98. Turning to `C[C@@H]1CN([C@H](C)CO)S(=O)(=O)c2ccc(-c3cncnc3)cc2O[C@@H]1CN(C)C(=O)c1ccc2c(c1)OCO2`, the relative growth is 1.1. The result for `CC(C)CC#Cc1ccc2c(c1)O[C@H](CN(C)S(=O)(=O)c1cccc(F)c1)[C@@H](C)CN([C@H](C)CO)S2(=O)=O` reads 1.17. The result for `CCC[C@@H](N[C@H]1CCS(=O)(=O)C1)C(=O)O` reads 1.15; that for `C[C@]12C[C@@H](O)[C@@H]3C[C@@]1(O[C@@H]1O[C@H](CO)[C@@H](O)[C@H](O)[C@H]1O)[C@@]3(COC(=O)c1ccccc1)C(=O)O2`, 1.03; that for `CC(CN(C)C)CN1c2ccccc2CCc2ccccc21.O=C(O)/C=C\C(=O)O` (stereo not given), 0.966.

`CC1COc2c(N3CCN(C)CC3)c(F)cc3c(=O)c(C(=O)O)cn1c23` (stereo not given): the relative growth is 0.154.
